This experiment deals with T1, UmChlE (Mycosarcoma maydis, UniProt A0A060S684, P492L).
T1 construct: purification of the chlorogenic acid esterase UmChlE from culture supernatant of U. maydis was accomplished by three complementary separation steps; made in house; host or cells: Ustilago maydis itself (native producer), culture supernatant; Q Sepharose FF, preparative IEF, polyamide column
Format: biochemical, Ustilago maydis. On the procedure:
Chlorogenic acid esterase activity was determined at 37 °C in 50 mM Tris buffer at pH 7.5 using chlorogenic acid and methyl ferulate as standard substrates, unless otherwise stated. The release of the corresponding free acids was analyzed with HPLC-UV. If appropriate, the hydrolysis of other benzoic and cinnamic acid ester derivatives as well as feruloylated saccharides was measured with the same method. After incubation for one hour the reaction was terminated by doubling the reacting volume with acetonitrile. Samples were centrifuged (15 min, 15.000 × g) before injection to the HPLC (Chromolith Performance RP-18e reverse-phase column, 100 × 4.6 mm, Merck, Darmstadt, Germany). […] Substance elution was detected at 232 nm (benzoic and 3-hydroxybenzoic acid), 254 nm (4-hydroxybenzoic and vanillic acid), 275 nm (cinnamic and gallic acid), 306 nm (p-coumaric acid) and 323 nm (ferulic, caffeic, chlorogenic and sinapic acid) using a Shimadzu UV-Vis detector (SPD-10A VP, Shimadzu Deutschland GmbH, Duisburg, Germany). One unit of enzyme activity was defined as the amount of enzyme releasing one µmοl of free acid per minute under the specified conditions. […]
Remaining enzyme activity was measured after 1 h incubation with 1mM, or, in a further experiment, 1.95 mM methyl ferulate and different metal ions as well as inhibitors in concentrations listed above (at 37 °C, 50 mM Tris buffer pH 7.5). […]

Chains of the proteins cited; added tags and fusions are not shown. Residues count along the entry.
UniProt A0A060S684, 22-585, stated change not applied: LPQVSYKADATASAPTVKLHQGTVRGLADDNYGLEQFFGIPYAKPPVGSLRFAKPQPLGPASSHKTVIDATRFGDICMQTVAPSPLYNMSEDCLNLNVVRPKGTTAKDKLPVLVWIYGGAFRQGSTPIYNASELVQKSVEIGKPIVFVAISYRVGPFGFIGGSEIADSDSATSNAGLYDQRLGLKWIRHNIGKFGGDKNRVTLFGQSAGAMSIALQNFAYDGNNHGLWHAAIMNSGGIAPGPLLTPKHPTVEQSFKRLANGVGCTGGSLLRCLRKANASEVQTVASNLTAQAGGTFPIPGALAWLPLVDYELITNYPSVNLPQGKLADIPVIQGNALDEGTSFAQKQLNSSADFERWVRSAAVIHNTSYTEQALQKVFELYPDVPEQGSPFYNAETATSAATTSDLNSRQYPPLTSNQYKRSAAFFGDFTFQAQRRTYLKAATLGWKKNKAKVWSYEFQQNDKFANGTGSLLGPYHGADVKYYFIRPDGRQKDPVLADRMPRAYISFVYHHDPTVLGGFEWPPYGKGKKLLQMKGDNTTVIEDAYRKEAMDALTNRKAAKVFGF

Consider `O=S(=O)(F)Cc1ccccc1` [PMSF, phenylmethylsulfonylfluoride], for which, for the setting “1 mM additive, methyl ferulate, 1 h, 37 °C, 50 mM Tris pH 7.5”, the Relative esterase activity is 36 (2.01) %. In addition, the “enzyme activity was inhibited” value (1 mM inhibitor) is reported as 64%.

Values taken from EP3539977B1, “ENZYMES WITH CHLOROGENIC ACID ESTERASE ACTIVITY AND FERULOYL ESTERASE ACTIVITY” (SternEnzym GmbH & Co. KG, priority 2014, dated 2016).
